{"source": "paper PMC10610424", "about": "“Enhancing Solubility and Dissolution Rate of Antifungal Drug Ketoconazole through Crystal Engineering” (Pharmaceuticals, 2023)", "assay": "Equilibrium solubility, shake flask method, HPLC of KTZ", "assay_type": "physicochemical", "conditions": "for Equilibrium solubility, concentration of KTZ: 37.0 °C, 48 h, mean ± SD, triplicate", "method": "The solutions were stirred at 160 strokes min^−1 with a magnetic bar at 37 °C for 48 h to reach equilibrium. The suspension was filtered through a 0.22 μm nylon filter membrane, diluted appropriately, and analyzed by subsequent high-performance liquid chromatography (HPLC) analysis. […] An Agilent Eclipse XDB−C18 (250 mm × 4.6 mm, 5 μm) column was used throughout the process of elution with the column temperature set to 30 °C. The mobile phase, consisting of methanol and water (80/20, v/v), was run at 1.0 mL min^−1 with a detection wavelength of 254 nm. The injection sample volume was 10 μL. The measurements were performed based on an external standard method. All the solubility experiments were performed in triplicate and the results are expressed as the mean value ± standard deviation (SD). Residual solids were collected after the equilibrium solubility experiment and characterized by PXRD for solid-form stability examinations.", "data": [{"compound": "CC(=O)N1CCN(c2ccc(OCC3COC(Cn4ccnc4)(c4ccc(Cl)cc4Cl)O3)cc2)CC1.COc1cc(C(=O)O)ccc1O", "note": "(racemic) [KTZ−VNA]", "values": [{"measurement": "Solubility of ketoconazole in distilled water", "setting": "distilled water (abstract)", "value": 0.3216, "unit": "mg/mL"}, {"measurement": "Equilibrium solubility, concentration of KTZ", "setting": "pH 4.5 acetate buffer", "value": "0.36544 ± 0.0511", "unit": "mg/mL"}, {"measurement": "Equilibrium solubility, concentration of KTZ", "setting": "ultrapure water", "value": "0.32157 ± 0.01003", "unit": "mg/mL"}]}]}
